Assay results published in publication PMC4878873.

Target: COP9 signalosome complex subunit 3 (UniProt Q9UNS2)
Experiment: cross-link between two proteins; cross-linking mass spectrometry

**Q.** Which “listed as a hit” value does the source give for “COP9 signalosome complex subunit 8, Q99627” here?
**A.** yes
